In US11306063B2, “Heterocyclic naphthoquinones derivatives for use in the treatment of cancers including Cushing disease” (Commissariat a l'Energie Atomique et aux Energies …, priority 2016, dated 2022):

Tested on: EGFR, P-EGFR, Met, P-Akt in HCC827 cells
Assay: Protein expression by immunoblot, HCC827
Type: cell-based, human
Settings: treatment at 10 μM
Method: Tubulin (Tub) serve as loading controls. One representative experiment out of two is presented.
Cells were treated by either DMSO (0.5%) or increasing doses of the selected molecules from 1 μM to 10 μM over 6 to 24 hours as indicated. […] Tubulin was detected using anti α-tubulin primary antibody (in-house: the polyclonal Glu-tubulin antibody (L4) is available commercially from Abcys (Paris, France)). HRP-coupled anti-rabbit (#A6154) and anti-mouse (#A4416) secondary antibodies were purchased from Sigma. HRP activity was detected through HRP chemoluminescence detection reagent (Millipore, #WBLUF0100). […] Positive control was Epotoside at 50 μM or 100 μM, a known drug inducing cancerous cell death by apoptosis.

Question: For `COc1cc2ncnc(Nc3ccc(F)c(Cl)c3)c2cc1OCCCN1CCOCC1` [Gefitinib, reference compound], which “effect on P-EGFR or EGFR levels, HCC827” value is on record?
Answer: had no effect
